Assay results reported in paper PMC10747029 (Pharmaceutics, 2023).

Experiments:
Format in all cases: cell-based
[1] = tested on: human breast adenocarcinoma MCF-7; assay: MTT cell viability assay, MCF-7; settings: IC50 (non-tumor Wi-38 cells)/IC50 (MCF-7)
Procedure: (§1) The cell cultures were grown at 37 °C in an atmosphere of 5% CO2 and 100% humidity.
(§2) The cell viability was assessed using the MTT method. The cell cultures were seeded in 96-well plates at a density of 10,000 cells per well. After the cells were attached to the surface of the wells, they were incubated in the presence of the test substances at final concentrations in the range of 10^−8 M to 10^−4 M for 48 h. […] At the end of the incubation, the medium in which the cells with substances were cultivated was replaced with a nutrient medium without fetal calf serum, which contained 5 mg/mL MTT, and the incubation continued for another 2 h in a CO2 incubator. After incubation, the medium with MTT was removed, and a DMSO solution was added to the wells to dissolve the formazan precipitate formed from MTT during the cell life. The optical density of the samples was measured at a wavelength of 530 nm on a photometer Uniplan AIFR-01 (Pikon, Moscow, Russia). The cell viability in the cultures was expressed as a percentage relative to the values obtained for the control samples (without tested compounds). The average values of optical density in the control samples were taken as 100%.
(§3) Statistical analysis was carried out using the GraphPad Prism v8.4.3 software with nonlinear regression analysis for the cell viability assay. […] The mean ± standard deviation value was calculated for each point.

[2] = tested on: human chronic erythroleukemia K-562; assay: MTT cell viability assay, K-562; settings: IC50 (non-tumor Wi-38 cells)/IC50 (K-562)
Procedure: as §1, §2, §3

[3] = tested on: human larynx carcinoma Hep-2; assay: MTT cell viability assay, Hep-2; settings: IC50 (non-tumor Wi-38 cells)/IC50 (Hep-2)
Procedure: as §1, §2, §3

[4] = tested on: human cervical adenocarcinoma HeLa; assay: MTT cell viability assay, HeLa; settings: IC50 (non-tumor Wi-38 cells)/IC50 (HeLa)
Procedure: as §1, §2, §3

## C[C@@H]1C[C@H]2[C@@H]3CCC4=CC(=O)C=C[C@]4(C)[C@@]3(F)[C@@H](O)C[C@]2(C)[C@@]1(O)C(=O)CO [DEX, dexamethasone]
[1]
  Selectivity index (SI) MCF-7: 0.78
[2]
  Selectivity index (SI) K-562: 16.71
[3]
  Selectivity index (SI) Hep-2: 1.61
[4]
  Selectivity index (SI) HeLa: 13.44
